Screens deposited in PubChem by several laboratories.
Shown are actives, neighbours in structure and some others; about 2.3% of the full set was active somewhere.
MC4R ag barr – agonists of human melanocortin 4 receptor (MC4R) beta-arrestin; P32245; U2OS MC4R beta-arrestin complementation, luminescence; percent of melanotan II response, DMSO zero; activation, % at 8.9 µM; 360,000 tested, 0.98% active; AID 540308;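 active = activation above a per-plate cutoff, the mean activation of sample wells on that plate plus 3 SD, cut at about 8% in these data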
ASAP1 GAP inh – inhibitors of human ASAP1 ArfGAP activity; Q9ULH1; ASAP1-stimulated ARF1 GTP hydrolysis, GDP FP detection; inhibition, % at 16.5 µM; 360,000 tested, 0.19% active; AID 624377; in the data active = inhibition above about 25%;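 also: 0% = vehicle with enzyme and substrate and 100% = no enzyme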
ARFGAP1 inh – inhibitors of rat ARFGAP1. Arfgap1-stimulated ARF1 GTP hydrolysis, GDP FP detection. inhibition, % at 16.5 µM. 360,000 tested, 0.26% active. AID 651572;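 active = inhibition above a per-plate limit, mean inhibition of low control wells plus 3 SD, cut at about 25% in these data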;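 also: 0% = DMSO wells with enzyme and 100% = wells lacking Arfgap1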
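Material – truncated rat Arfgap1 GAP domain · Buffer or medium – HEPES-based buffer, pH 7.5 · Reagent – human ARF1(Δ1-17)-GTP substrate · Dosing – 16.5 µM single point, 1.26% DMSO · Schedule – GTP hydrolysis reaction 2 h at 25 °C · Technique – GDP detection by fluorescence polarization · Benchmarks – No-Arfgap1 wells (100%) versus DMSO full-reaction wells (0%) · Repeats – single replicate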
NRP1-CendR mod – modulators of CendR peptide binding to human neuropilin-1; O14786; inhibition, % at 25 µM; FAM-RPARPAR peptide binding to NRP-1, fluorescence polarization; 360,000 tested, 0.85% active; AID 602438;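 active = inhibition or corrected inhibition above about 18%, plus a signal ratio from 0.5 to 1.5, limit read from the data, passing the limit was not always enough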
UUG fidelity – modulators of start codon recognition fidelity in yeast; AID 602363; activity score, % at 18.7 µM; S. cerevisiae UUG-firefly luciferase reporter, luminescence/redox ratio; actives 0.13% (n = 350,000);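 active = replicate mean at a twofold rise or more, about +100% in these data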;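 note: firefly luciferase made from a UUG start codon reports start codon fidelity; reporter light over untreated wells divided by growth signal over untreated wells; some hits fall short of that in this replicate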
MC4R antag cAMP – blocks human MC4R cAMP signaling; inhibition, % at 6.5 µM; AID 540295; MC4R-expressing cells, MTII-stimulated cAMP, LANCE TR-FRET; 360,000 tested, 0.48% active;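 active = inhibition above its plate's cutoff, the mean of tested wells on that plate plus 3 SD, cut at about 29% in these data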;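 also: 0% = Melanotan II alone and 100% = Melanotan II plus saturating MCL0020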
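Assay system: U2OS-MC4R stable cell line; Also added: Melanotan II; Technique: Eu-cAMP/anti-cAMP TR-FRET, emission 671 nm; Times: 30-min compound, 1-h challenge, 1-h detection, room temperature.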
MC4R barr ag – human MC4R beta-arrestin agonism confirmation; activation, % at 8.9 µM; shares compounds with MC4R ag barr; 2,400 tested, 31% active; AID 602192; U2OS MC4R beta-arrestin recruitment, luminescence; scaled DMSO 0%, Melanotan II 100%;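 active = mean activation across replicates above the hit cutoff set in the earlier primary screen, cut at about 8% in these data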
MOR-DOR barr ag – counter-screen for MC4R agonists: agonists of mu-delta opioid heterodimer | shares compounds with MC4R ag barr | U2OS PathHunter beta-arrestin, beta-gal luminescence; percent of deltorphin B response, DMSO zero | activation, % at 9.2 µM | 2,400 tested, 5.8% active | AID 602194;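 active = mean activation across replicates exceeds the hit threshold derived in the earlier primary screen, cut at about 18% in these data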;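 also: 100% = deltorphin B at 0.9 µM final and 0% = DMSO alone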
* hit, by the source's call; . = not tested or not shown.

SMILES | MC4R ag barr | ASAP1 GAP inh | ARFGAP1 inh | NRP1-CendR mod | UUG fidelity | MC4R antag cAMP | MC4R barr ag | MOR-DOR barr ag
C=CCOC(=O)[C@H]1[C@@H]2C(=O)O[C@@H](c3ccccc3)[C@@H](c3ccccc3)N2[C@@H](c2ccc(OCCOC(=O)[C@H]3C[C@H]4C(=O)N5CCC[C@H]5C(=O)N4[C@H]3c3cccc(OCCO)c3)cc2)[C@]12C(=O)Nc1ccccc12 | . | . | . | . | -10.7 | . | . | .
N#C/C(=C\c1cn(CC(=O)O)c2ccccc12)C(=O)NCc1ccccc1 | -1.6 | 2.9 | 16.5 | -10.5 | 6.1 | 1.4 | . | .
COc1ccccc1OCCn1cc(/C=C(\C#N)C(=O)NCc2ccco2)c2ccccc21 | 1.3 | 12.9 | -0.4 | -5.2 | -15.4 | 8.3 | . | .
Cc1ccc(C)c(OCCn2cc(/C=C(\C#N)C(=O)NCc3ccco3)c3ccccc32)c1 | 11.4* | -3.6 | 4.3 | -14.6 | . | 19.5 | 12.2* | 9.1
N#C/C(=C\c1cn(CCOc2ccccc2)c2ccccc12)C(=O)NCc1cccs1 | 22.9* | 3.1 | 9.0 | 8.5 | -7.7 | 7.7 | 6.1 | 6.6
COc1ccc(OCCn2cc(/C=C(\C#N)C(=O)NCc3ccco3)c3ccccc32)cc1 | 50.1* | 8.4 | 9.1 | 24.1 | -9.0 | -5.8 | 51.8* | 29.9*
CC(=O)c1ccc(OCc2cc(C(=O)NCCc3ccc(Cl)cc3)no2)cc1 | 14.5* | 2.0 | 3.2 | 11.8 | -2.1 | 19.9 | -1.5 | 5.2
NC(=O)c1cc2cc(Cc3ccccc3Cl)ccc2oc1=O | 10.8* | 4.5 | 6.2 | 3.2 | 1.8 | -6.1 | -1.5 | 5.6
S=C(Nc1ccc(Cl)c(Cl)c1)N1CCN(c2ccccn2)CC1 | 14.9* | 8.5 | -5.7 | 9.8 | 4.7 | 26.7 | 2.0 | 7.0
CC(C)CCNc1ncnc2c1nnn2Cc1ccccc1Cl | 17.8* | -1.3 | -4.7 | 4.3 | . | 0.9 | 4.2 | 5.2
OCCNc1ncnc2c1nnn2Cc1ccccc1Cl | 1.4 | -1.9 | -7.8 | -9.0 | -18.8 | -2.4 | . | .
C[C@@H]1CN([C@H](C)CO)C(=O)c2cc(NS(=O)(=O)c3ccc(F)cc3)ccc2O[C@H]1CN(C)C | . | . | . | . | 0.3 | . | . | .
C/C=C/c1ccc2c(c1)O[C@@H](CN(C)C(=O)Nc1ccc(F)cc1)[C@H](C)CN([C@H](C)CO)S2(=O)=O | . | . | . | . | -4.4 | . | . | .
CCNC(=O)Nc1ccc2c(c1)C(=O)N(C)[C@H]1CC[C@H](CC(=O)NCc3ccc(F)cc3)O[C@@H]1CO2 | . | . | . | . | -8.0 | . | . | .
COc1ccc(/C=C/C(=O)NCc2c(C)nn(C)c2C)cc1COc1ccc(Br)cc1 | 11.6* | 16.3 | 5.4 | -3.0 | -14.0 | -4.2 | 0.9 | 2.9
CCC(=O)NC(Nc1sc2c(c1C(=O)OC)CCCC2)(C(F)(F)F)C(F)(F)F | 14.6* | -1.2 | -6.1 | 12.2 | -21.8 | 8.9 | -1.4 | 5.1
COC(=O)c1c(NC(NC(=O)c2ccccc2)(C(F)(F)F)C(F)(F)F)sc2c1CCN(C)C2 | -2.1 | 11.0 | -3.9 | 3.0 | -10.5 | 8.5 | . | .
O=C(CCCCCNc1nc(=S)[nH]c2ccccc12)NCCc1ccc(Cl)cc1 | 12.3* | 6.9 | 2.5 | 12.1 | . | 20.4 | 11.4* | 6.1
CN(C)C(=O)c1cccc(-c2ccc3c(c2)[C@@H]2[C@@H](CCN2C(=O)Cc2ccccn2)[C@H](CO)N3C)c1 | . | . | . | . | 0.8 | . | . | .
O=C(c1cc(-c2ccc(O)cc2)on1)N1CCN(c2ccc(F)cc2)CC1 | 10.6* | -10.6 | 22.2 | -4.0 | 6.5 | 11.2 | -1.1 | 5.8
O=C(Cc1ccccc1)N1CC[C@H]2[C@H](CO)Nc3ccc(-c4ccccc4)cc3[C@H]21 | . | . | . | . | -16.5 | . | . | .
COC(=O)c1c(NC(=O)CN2CCN(Cc3ccc4c(c3)OCO4)CC2)sc(C)c1C | 9.6* | -13.6 | 6.7 | 3.3 | -5.1 | 12.7 | 7.7 | 12.6
Cc1cc(C)cc(NC(=O)CCc2nc3sc4c(c3c(=O)[nH]2)CCCC4)c1 | 12.7* | 4.3 | -4.8 | -33.0 | -12.7 | 9.9 | 5.4 | 2.5

Among those listed so far, these contain a furan ring, fused or not.
SMILES | MC4R ag barr | ASAP1 GAP inh | ARFGAP1 inh | NRP1-CendR mod | UUG fidelity | MC4R antag cAMP | MC4R barr ag | MOR-DOR barr ag
COc1ccccc1OCCn1cc(/C=C(\C#N)C(=O)NCc2ccco2)c2ccccc21 | 1.3 | 12.9 | -0.4 | -5.2 | -15.4 | 8.3 | . | .
Cc1ccc(C)c(OCCn2cc(/C=C(\C#N)C(=O)NCc3ccco3)c3ccccc32)c1 | 11.4* | -3.6 | 4.3 | -14.6 | . | 19.5 | 12.2* | 9.1
COc1ccc(OCCn2cc(/C=C(\C#N)C(=O)NCc3ccco3)c3ccccc32)cc1 | 50.1* | 8.4 | 9.1 | 24.1 | -9.0 | -5.8 | 51.8* | 29.9*
